# Measured affinities in a library of Ab-14 light chain variants

Source: Li et al. 2023 (doi:10.1038/s41467-023-39022-2), MIT Lincoln Laboratory and A-Alpha Bio; data file from the FLAb repository.

All variants were tested on one target, the spike HR2 peptide PDVDLGDISGINAS (SARS-CoV-2).

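The parent was found by panning a naive human phage display library on the peptide. This is the validation round: designs drawn from the data on random variants, tested in the same kind of assay. Several design methods are mixed in this list. Affinity was read by AlphaSeq, a pooled yeast mating assay with surface-displayed partners. Pairs that bind mate more often; barcode pairs of the diploids are counted by sequencing. Each replicate has its own calibration line, from reference interactions of the BCL2 family. Mating was done six times.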

Parent scFv Ab-14: VH joined to VL by a 15-residue (Gly4Ser)3 linker. Changes lie in the light chain CDRs alone.
VH: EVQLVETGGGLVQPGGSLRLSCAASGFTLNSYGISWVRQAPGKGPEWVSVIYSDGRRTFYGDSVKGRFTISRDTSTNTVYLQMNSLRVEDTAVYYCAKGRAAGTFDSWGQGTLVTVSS
VL: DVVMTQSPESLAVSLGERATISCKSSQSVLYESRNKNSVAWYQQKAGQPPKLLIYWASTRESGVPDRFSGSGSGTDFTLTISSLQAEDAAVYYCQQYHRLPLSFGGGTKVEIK

Each variant is given by its three light chain CDRs, as the data file delimits them; those of the parent are KSSQSVLYESRNKNSVA, WASTRES, QQYHRLPLS.
This list holds designs with more than six substitutions.
Numbers give log10(Kd / nM), so 0 is 1 nM and 3 is 1 µM. Smaller is tighter.
A mean of the replicates is given; it leaves out those without a signal.
Where no diploid with the target was found in any replicate, the entry reads "nd": below detection, most likely a poor binder, though not proof of it.
As a blank, each scFv also met three strains without target: over all light chain designs, 4% of these pairings were detected, typically at 2.64 and seldom below 1.59. For each scFv, signals with the empty controls are counted beside the result.

Variant HLALRLSYGNGLNKAIA | DVQARSY | QQYARLPLL showed 1.47 (1 of 6 replicates; controls 0 of 18). For KVSEFMRGLMSRQDSIA | DNVTRNY | QQYDRLPLS, the assay gave 1.58 (6 of 6 replicates; controls 1 of 18). Variant MIYGAQRELGLAANSIA | DNVTRYN | QQYNRLPLS gave 2.40 (3 of 6 replicates; controls 0 of 18). With TIGGTLMMGYKQRSNVA | EVSQRLN | QQYDRLPLV the result was 0.86 (6 of 6 replicates; controls 2 of 18). Variant QLSLMENHMGDRMHNVA | DTNQAKT | QDYFRLPLM gave 1.32 (6 of 6 replicates; controls 1 of 18). Variant KLQQWDLYESRNKNSVA | QASERES | QCYHRLPLS showed nd (0 of 6 replicates; controls 0 of 18). Variant KIGSTLNQLMHKKNNVA | DLVMREN | QQYFRLPLS gave 0.80 (5 of 6 replicates; controls 0 of 18). For KLSQSVLFWGHAINSVA | EMETRES | QQYDRLPLS, the assay gave 1.20 (6 of 6 replicates; controls 1 of 18).

For KLSMITGHMSTAKNNVA | EMVTREN | QQYNRLPLS, the assay gave 0.44 (6 of 6 replicates; controls 1 of 18). Variant KIAQMVNFESTHINAVA | QMSTREE | QQYFRLPLS showed 0.40 (6 of 6 replicates; controls 1 of 18). Variant HISDMLGGDRKIAHNIA | NTGVTSR | QQYSRLPLI showed 0.35 (6 of 6 replicates; controls 1 of 18). For HITYGMMVLGRHSKSIA | QAETRAK | QQYDRLPLA, the assay gave 1.21 (6 of 6 replicates; controls 0 of 18). For TISDVLNTLTKTGNNVA | DLAERED | QQYFRLPLS, the assay gave 0.47 (6 of 6 replicates; controls 0 of 18). For KLQQMELYMSRNCNSVA | DASQRES | QQYHRLPLS, the assay gave 0.65 (6 of 6 replicates; controls 0 of 18). Variant KLSQYVGGESRNKSSLA | DNNTRCD | QQYERLPLS showed 1.53 (6 of 6 replicates; controls 0 of 18). For KVQPSELYESRHDNSVA | NASKRES | QQYHRLPLS, the assay gave 1.86 (6 of 6 replicates; controls 2 of 18).

Variant KLDMNELHQSQNKNCVA | DSAQKCV | QQYSRLPLS showed 0.17 (6 of 6 replicates; controls 0 of 18). Variant KLSEFAHFESRKKNSVA | ENSTRES | QQYDHLPLS showed 1.66 (5 of 6 replicates; controls 1 of 18). Variant KISQMVRVGSTHHNSIA | EEATRAK | QQYHRLPLA showed 1.21 (6 of 6 replicates; controls 1 of 18). Variant HFAYQLQSLYNSKQNVA | NASTVMT | QHYNRLPLS showed 1.98 (5 of 6 replicates; controls 1 of 18). With KSSQSFTYESRNVNSVA | GASTRDS | QQRHRLTLS the result was 0.23 (6 of 6 replicates; controls 1 of 18). Variant KVEMSVPYEQRNKASVA | HASVRES | QQYHRLPLS showed 0.03 (6 of 6 replicates; controls 1 of 18). Variant HVSMLTLQGMRHTNSVA | QMTTREN | QQYDRLPLA gave 0.52 (6 of 6 replicates; controls 1 of 18). With KVSEFPRGLMSRQDSIA | DNNTREN | QQYDRLPLS the result was 1.37 (5 of 6 replicates; controls 0 of 18).

Variant MISQSFLIGMKAKNSVA | QTSTREE | QQYDRLPLI showed 0.28 (6 of 6 replicates; controls 1 of 18). Variant KSSMSWEYESRNSNSVA | HASTREL | QQYHRLPLI showed 0.50 (6 of 6 replicates; controls 1 of 18). Variant KLSQSWWGEWRNKNSVA | HASTREQ | QDYHRLPLS showed 1.26 (6 of 6 replicates; controls 1 of 18). Variant KVSMSVNYGQRNKNSVA | DASQRES | QQYHRLPLS gave 0.07 (6 of 6 replicates; controls 0 of 18). Variant HMSALTLQGMRARNSVA | QMTTREN | QQYDRLPLA gave 1.45 (6 of 6 replicates; controls 0 of 18). Variant MMSQVTMSGMRHRNNVA | QTSTREP | QQYDQLPLI gave 0.87 (6 of 6 replicates; controls 0 of 18). For KQSQQDDYQSRNKNQVA | NASTRYS | QQYHRLPLS, the assay gave 0.38 (6 of 6 replicates; controls 0 of 18). With QLYAVQDMTTKNKNSVA | EQSTREN | QQYHRLPLS the result was 0.94 (6 of 6 replicates; controls 0 of 18).

Variant TLMHHQDYGGEEKKSIA | NAIIKEE | QQYSRLPLA showed 1.64 (6 of 6 replicates; controls 0 of 18). With HVSMLTLGGLKNRNSVA | QMTTREN | QQYDRLPLS the result was 0.33 (6 of 6 replicates; controls 0 of 18). Variant HMSAVTMMGMRHRNSVA | QMTMREN | QQYDRLPLS gave 1.77 (6 of 6 replicates; controls 2 of 18). For KLSMFAHVETGVKNNVA | QMETRES | QQYDHLPLS, the assay gave 0.47 (6 of 6 replicates; controls 1 of 18). For KFQQMVMMGDRNKNSVA | WASTRLQ | QQYHRLPLS, the assay gave 1.86 (6 of 6 replicates; controls 3 of 18). Variant KFQQSVLYEDRVKNSVA | NASDRMS | QQYHRLPLS gave 0.16 (6 of 6 replicates; controls 0 of 18). Variant TLMQVGGYESNNKNSIA | DLRTRES | QQYHRLPLS showed nd (0 of 6 replicates; controls 0 of 18). Variant KIKISVLYESRNKNSVA | AAITREV | QQYHRLPES showed 0.12 (1 of 6 replicates; controls 0 of 18).

Variant ILSQSVLMGSHLKNSVA | QASTRFD | QQYHRLPLS gave 0.52 (6 of 6 replicates; controls 1 of 18). Variant HISQSFMIESVWRNNVA | HQSTREQ | QQYDRLPFS gave 1.08 (6 of 6 replicates; controls 1 of 18). Variant TLGDVTRQESNKKSSIA | DMSNRAD | QQYHRLPIS showed 0.47 (6 of 6 replicates; controls 0 of 18). With KLDSAEQHGTAQNSAMA | SASVSTQ | QQYSRLPLS the result was 0.17 (6 of 6 replicates; controls 0 of 18). Variant KLKTMPGEIPKEYNSIA | HAELRTP | QQYHRLPLI gave 0.66 (6 of 6 replicates; controls 2 of 18). Variant KISMLYNYASTNKNSIA | EMTTREQ | QHYHRLPLS gave 1.00 (6 of 6 replicates; controls 1 of 18). Variant TISQTAQMESHNKNSVA | DLNVRGS | QQYDRLPLS gave 0.51 (6 of 6 replicates; controls 3 of 18). For MISGFMKSSMAHMNSVA | DMTNRED | QQYDRLPLS, the assay gave 0.42 (6 of 6 replicates; controls 1 of 18).

With MVGQGLMGESRAKNSIA | HASTRFD | QHYHRLPLI the result was 1.39 (6 of 6 replicates; controls 1 of 18). Variant AISMHAFYGQRDENGIA | GADVRAK | QQYYRLPLT showed 0.51 (6 of 6 replicates; controls 2 of 18).

Extract of 5 entries:

CDR-L1,CDR-L2,CDR-L3,"mean, log10 nM",seen in,control signals
KVSEFMRGLMSRQDSIA,DNVTRNY,QQYDRLPLS,1.58,6 of 6,1 of 18
HFAYQLQSLYNSKQNVA,NASTVMT,QHYNRLPLS,1.98,5 of 6,1 of 18
ILSQSVLMGSHLKNSVA,QASTRFD,QQYHRLPLS,0.52,6 of 6,1 of 18
HMSAVTMMGMRHRNSVA,QMTMREN,QQYDRLPLS,1.77,6 of 6,2 of 18
KQSQQDDYQSRNKNQVA,NASTRYS,QQYHRLPLS,0.38,6 of 6,0 of 18

The parent sequence was in this pool as ten entries: three were never detected, three once, and four in most replicates, with averages from 0.34 to 2.37.
A sequence measured in both rounds can read differently, since the two assays cover different ranges.
In the paper, a design with two or fewer of six values counts as a poor binder.